# Apparent affinities of Ab-14 variants for a coronavirus HR2 peptide

Antigen: PDVDLGDISGINAS, a 14-residue peptide of the SARS-CoV-2 spike HR2 region.

Each scFv is VH, the linker GGGGSGGGGSGGGGS, VL, as in the parent Ab-14, and differs from it in the CDRs of the light chain only.
VH: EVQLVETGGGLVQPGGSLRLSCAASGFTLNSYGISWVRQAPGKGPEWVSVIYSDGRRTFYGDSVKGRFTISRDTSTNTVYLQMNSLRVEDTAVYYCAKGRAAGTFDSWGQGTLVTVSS
VL: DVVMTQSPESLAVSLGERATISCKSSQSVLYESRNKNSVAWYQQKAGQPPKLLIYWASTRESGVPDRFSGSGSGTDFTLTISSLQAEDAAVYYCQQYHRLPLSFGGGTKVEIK

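The parent was found by panning a naive human phage display library on the peptide. Designed CDR sequences, proposed from the first random library and measured here. Several design methods are mixed in this list. Affinity was read by AlphaSeq, a pooled yeast mating assay with surface-displayed partners. The frequency of each diploid, read from paired DNA barcodes, reflects how well the two displayed proteins bind. Scores were corrected for input abundance and mapped to Kd with protein pairs of known affinity run in the same pool. Each pool was mated in six replicate cultures.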

The whole VL of each variant is written out.
Affinities are written as log10 Kd with Kd in nM; a lower number is a better binder.
The mean shown is taken over the replicates in which the pair was detected.
Order: sorted from the lowest average up.
Values of this round are not directly comparable with the first-round values of the same sequences.
Where one sequence has several entries in the source, the replicates are pooled.
As a blank, each scFv also met three strains without target: over all light chain designs, 4% of these pairings were detected, typically at 2.64 and seldom below 1.59. The control count says in how many pairings with the empty strains this scFv gave a signal.
Of ten entries with the parent sequence, four were seen in most replicates (averages 0.34 to 2.37), three in one and three in none, so single entries are noisy.
The authors averaged sequences with at least three values out of six and counted those with two or fewer as poor binders.

Variant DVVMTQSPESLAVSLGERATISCKVSQAFLYESRNKNSVAWYQQKAGQPPKLLIYDANTRESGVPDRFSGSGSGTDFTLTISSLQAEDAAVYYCQQYHRLPLSFGGGTKVEIK gave -0.25 (6 of 6 replicates; controls 0 of 18).
Variant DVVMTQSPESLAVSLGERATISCKFEWSNGYESRNKNSVAWYQQKAGQPPKLLIYNASTRESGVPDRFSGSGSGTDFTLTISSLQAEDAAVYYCQQYWRLPLSFGGGTKVEIK gave -0.23 (6 of 6 replicates; controls 1 of 18).
Variant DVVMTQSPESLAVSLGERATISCKLSQSVLYESRNKNSVAWYQQKAGQPPKLLIYSASTRESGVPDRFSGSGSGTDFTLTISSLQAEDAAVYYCQQYHRLPLSFGGGTKVEIK gave -0.22 (12 of 12 replicates; controls 1 of 36).
Variant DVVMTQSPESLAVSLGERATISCKVSQQWLYESRNKNSVAWYQQKAGQPPKLLIYNASTRESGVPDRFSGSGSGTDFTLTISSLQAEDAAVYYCQQYHRLPLSFGGGTKVEIK gave -0.20 (6 of 6 replicates; controls 0 of 18).
Variant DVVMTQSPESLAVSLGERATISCKLSQSGWMESRNVNNVAWYQQKAGQPPKLLIYEASQRESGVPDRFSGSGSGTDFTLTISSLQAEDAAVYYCQQYHRLPLSFGGGTKVEIK gave 0.04 (6 of 6 replicates; controls 1 of 18).
Variant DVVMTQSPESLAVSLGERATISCDSSQSVLYESDNKNSVAWYQQKAGQPPKLLIYNASTRESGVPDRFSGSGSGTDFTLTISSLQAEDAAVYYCQQYHRLPLKFGGGTKVEIK gave 0.07 (6 of 6 replicates; controls 0 of 18).
Variant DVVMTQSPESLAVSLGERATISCKAPQSVLYESRNKNSVAWYQQKAGQPPKLLIYHASTREDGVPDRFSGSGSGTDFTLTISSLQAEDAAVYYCQSYHRLPLSFGGGTKVEIK gave 0.14 (6 of 6 replicates; controls 0 of 18).
Variant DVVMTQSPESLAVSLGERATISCKSLGSVLYESNNKNSVAWYQQKAGQPPKLLIYHASTREDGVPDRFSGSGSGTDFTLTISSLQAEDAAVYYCQQYHRLPLSFGGGTKVEIK gave 0.25 (6 of 6 replicates; controls 1 of 18).
Variant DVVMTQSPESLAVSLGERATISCKVSQSWLYESRNSNSVAWYQQKAGQPPKLLIYNASTRESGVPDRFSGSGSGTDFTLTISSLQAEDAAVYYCQQYHRLPLSFGGGTKVEIK gave 0.33 (6 of 6 replicates; controls 2 of 18).
Variant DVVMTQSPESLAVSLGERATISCKLQQSNLYESRNKNSVAWYQQKAGQPPKLLIYQASTRESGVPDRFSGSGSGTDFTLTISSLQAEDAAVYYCQQYHRLPLSFGGGTKVEIK gave 0.33 (6 of 6 replicates; controls 0 of 18).
Variant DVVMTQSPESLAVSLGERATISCKVQMSNLYESRMHNSVAWYQQKAGQPPKLLIYDASVRESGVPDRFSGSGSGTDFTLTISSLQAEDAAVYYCQQYHRLPLSFGGGTKVEIK gave 0.70 (6 of 6 replicates; controls 1 of 18).
Variant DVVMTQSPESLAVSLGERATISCKIGQMVTGESLNKNSIAWYQQKAGQPPKLLIYQMTTREGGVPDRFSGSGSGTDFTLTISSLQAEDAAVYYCQQYHRLPLSFGGGTKVEIK gave 0.76 (6 of 6 replicates; controls 0 of 18).
Variant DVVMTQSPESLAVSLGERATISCLMNERMMMGENQQHNIAWYQQKAGQPPKLLIYNAATLVKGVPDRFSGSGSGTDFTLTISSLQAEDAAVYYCQQYHNLPLGFGGGTKVEIK gave 1.00 (6 of 6 replicates; controls 0 of 18).
Variant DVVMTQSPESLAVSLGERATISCMISQLYNMGSFAVNSVAWYQQKAGQPPKLLIYQASERCNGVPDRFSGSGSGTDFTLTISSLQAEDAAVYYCQQYDRLPLIFGGGTKVEIK gave 1.46 (6 of 6 replicates; controls 1 of 18).

Repeated from above, the 2 best binders with a signal in all replicates:

| VL | log10 Kd (nM), mean | detected | control signals |
|---|---|---|---|
| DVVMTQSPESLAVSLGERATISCKVSQAFLYESRNKNSVAWYQQKAGQPPKLLIYDANTRESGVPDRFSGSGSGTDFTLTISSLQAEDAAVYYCQQYHRLPLSFGGGTKVEIK | -0.25 | 6/6 | 0/18 |
| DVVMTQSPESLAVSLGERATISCKFEWSNGYESRNKNSVAWYQQKAGQPPKLLIYNASTRESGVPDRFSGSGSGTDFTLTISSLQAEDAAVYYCQQYWRLPLSFGGGTKVEIK | -0.23 | 6/6 | 1/18 |

Source: Li et al. 2023 (doi:10.1038/s41467-023-39022-2), MIT Lincoln Laboratory and A-Alpha Bio; data file from the FLAb repository.